From EP3670512A1, “DIAZABICYCLOOCTANONES AS INHIBITORS OF SERINE BETA-LACTAMASES” (Antabio SAS, priority 2018, dated 2020)

How the values were obtained:
[1] = system: NTBC093 (E. cloacae strain expressing KPC-2, TEM-1); experiment: Meropenem potentiation, broth micro-dilution MIC, strain NTBC093; type: cell-based; conditions: MIC of meropenem with 4 µg/mL of the labelled compound, banded
[2] = system: NTBC189 (K. pneumoniae strain expressing TEM-OSBL(b), CTX-M-14, OXA-48(c)); experiment: Meropenem potentiation, broth micro-dilution MIC, strain NTBC189; type: cell-based; conditions: MIC of meropenem with 4 µg/mL of the labelled compound, numeric

Structure (SMILES)	MIC mero + 4 µg/mL inhibitor [1]	MIC mero + 4 µg/mL inhibitor [2]
O=C1N2C[C@@H](CC[C@H]2C(F)(F)F)N1OS(=O)(=O)[O-].[Na+] [Example 1, Sodium (2S, 5R)-7-oxo-2-(trifluoromethyl)-1,6-diazabicyclo[3.2.1]octan-6-yl sulfate]	(A) (MIC < 1 µg/mL (A))	–
NC(=O)[C@@H]1CC[C@@H]2CN1C(=O)N2OS(=O)(=O)O [Avibactam, avibactam]	–	0.25 (A) µg/mL
O=C1N2C[C@@H](CC[C@H]2C(F)F)N1OS(=O)(=O)[O-].[Na+] [Example 2, Sodium (2S, 5R)-7-oxo-2-(difluoromethyl)-1,6-diazabicyclo[3.2.1]octan-6-yl sulfate]	(A) (MIC < 1 µg/mL (A))	–
